“And” between values parts separate entries of the source, which are not always exact repeats. Equal values may be shown once.

The target in the assay is T1, endogenous PKD1 in LNCaP prostate cancer cells (Homo sapiens, UniProt Q15139).
T1 construct: endogenous in cells; host or cells: LNCaP
T1 sequence (Q15139 1-912): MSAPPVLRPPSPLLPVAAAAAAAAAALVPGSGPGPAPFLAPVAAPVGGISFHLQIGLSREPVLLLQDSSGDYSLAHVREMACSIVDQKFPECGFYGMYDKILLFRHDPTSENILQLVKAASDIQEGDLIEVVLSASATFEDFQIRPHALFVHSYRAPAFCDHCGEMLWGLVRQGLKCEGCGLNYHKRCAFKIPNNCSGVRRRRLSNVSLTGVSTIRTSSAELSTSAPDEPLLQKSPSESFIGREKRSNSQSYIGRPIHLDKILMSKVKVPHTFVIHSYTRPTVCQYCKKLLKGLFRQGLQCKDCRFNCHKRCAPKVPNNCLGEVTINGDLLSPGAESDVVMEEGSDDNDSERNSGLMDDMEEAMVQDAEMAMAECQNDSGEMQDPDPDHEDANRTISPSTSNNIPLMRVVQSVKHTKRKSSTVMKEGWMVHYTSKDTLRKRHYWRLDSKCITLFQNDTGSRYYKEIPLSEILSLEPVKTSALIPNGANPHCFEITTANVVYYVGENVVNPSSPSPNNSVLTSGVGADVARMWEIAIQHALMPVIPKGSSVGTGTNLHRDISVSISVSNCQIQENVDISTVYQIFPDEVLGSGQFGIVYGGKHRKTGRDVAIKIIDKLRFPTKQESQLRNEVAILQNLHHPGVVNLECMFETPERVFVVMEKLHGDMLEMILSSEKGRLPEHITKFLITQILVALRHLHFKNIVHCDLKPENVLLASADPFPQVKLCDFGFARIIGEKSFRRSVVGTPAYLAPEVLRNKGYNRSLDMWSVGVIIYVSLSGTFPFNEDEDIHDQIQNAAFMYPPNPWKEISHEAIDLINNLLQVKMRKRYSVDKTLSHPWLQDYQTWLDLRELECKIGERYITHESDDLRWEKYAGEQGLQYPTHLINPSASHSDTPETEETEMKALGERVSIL
Kind of assay: PMA-induced endogenous PKD1 activation in LNCaP cells (immunoblot). Conditions: 45 min pretreatment, PMA 10 nM 20 min, densitometry, read-out: IC50 for inhibition of autophosphorylation at p-Ser916-PKD1. Type of assay: cell-based. From the text:
In this study, we examined whether 1-NA-PP1 was cell permeable and capable of target inhibition in intact cells. The effect of 1-NA-PP1 on 12-myristate 13-acetate (PMA)-induced endogenous PKD1 activation in LNCaP prostate cancer cells was examined as previously described, [23], [28]. PMA activates PKD through PKC-dependent trans-phosphorylation of Ser744/748 (S^744/748) in the activation loop followed by autophosphorylation of PKD1 on Ser916 (S^916) in the C-terminus, [30]. PKD1 activity correlates well with the level of phospho-S^916 (p- S^916). We therefore used p-S^916 to monitor PKD activity and p-S^744/748 of PKD1 to determine if the compound interfered with PKC-induced trans-phosphorylation by possibly inhibiting PKC. […] In contrast, PKC-dependent trans-phosphorylation at Ser^744/748 was unaffected by 1-NA-PP1. Thus, 1-NA-PP1 specifically abrogated PKD1 activity without blocking PKC-mediated trans-phosphorylation.
Figure 5 Inhibition of PMA-induced activation of endogenous PKD1 by 1-NA-PP1 in cells. […] Western blots were quantified using densitometry analysis. […]
The prostate cancer cell lines (LNCaP, DU145, and PC3) were obtained from the American Type Culture Collection (ATCC). […] Protein concentration was determined using the BCA Protein Assay kit (Pierce) and then equal amounts of protein were subjected to SDS-PAGE followed by electrotransfer to nitrocellulose membranes. […]
On the technique in general: In western blotting, separated proteins are transferred to a membrane and probed.

Regarding `CC(C)(C)n1nc(-c2cccc3ccccc23)c2c(N)ncnc21` [Compound 1-NA-PP1, 1-(t-Butyl)-3-(naphthalen-1-yl)-1H-pyrazolo[3,4-d]pyrimidin-4-amine], the IC50 (commonly the concentration at which inhibition is half-maximal) is 22.5 µM and ~20 µM.
